# In PMC10375536, “Discovery of High-Affinity Amyloid Ligands Using a Ligand-Based Virtual Screening Pipeline” (Journal of the American Chemical Society, 2023):
# Chains of the proteins cited; added tags and fusions are not shown. Residues count along the entry.
# UniProt P05067, 672-713 limits assumed: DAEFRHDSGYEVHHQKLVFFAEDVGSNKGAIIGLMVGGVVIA
# Molecular target: T1, Aβ(1–42) fibrils (Homo sapiens, UniProt P05067)
# T1 construct: Monomeric Aβ(1-42) (1 mg: Rockland Immunochemicals, Limerick, PA, Lot #31541); purchased Rockland Immunochemicals, Limerick, PA Lot #31541 (a lot number; no catalogue number given)
# Assay: direct fluorescence titration into fibrils (saturation binding assay)
smiles,measurement,setting,value
"Cc1ccc2c(c1)sc(-c1ccc(N(C)C)cc1)[n+]2C [ThT, Thioflavin T]",Kd,"ThT titrated into Aβ(1–42) fibrils (500 nM), 1× PBS pH 7.4, 25 °C, best fit to eq 2, read-out: log(Kd(ThT)/M) (converted)",200 nM
same,−log(Kd/M),"direct titration of ThT into Aβ(1–42) fibrils, single-site binding model",6.7 ± 0.1
